# From patent EP1169483B1
# Test system: Thr164 receptor
# Details: Chinese hamster fibroblast cells, following washing; n = 5, p = 0.001
structure (smiles),measurement,value
OCc1cc(C(O)CNCCCCCCOCCCCc2ccccc2)ccc1O (stereo not shown) [salmeterol],"loss of cAMP response, half-time",0.78 ± 0.06 h
